The text below walks through data of PubChem BioAssay AID571 (The Scripps Research Institute Molecular Screening Center, 2007).

By UniProt entry, the sequences of proteins in these tests, tags left out. Where a name states a change or a piece, a line headed by the entry shows the natural chain unless it says otherwise.
UniProt P28566: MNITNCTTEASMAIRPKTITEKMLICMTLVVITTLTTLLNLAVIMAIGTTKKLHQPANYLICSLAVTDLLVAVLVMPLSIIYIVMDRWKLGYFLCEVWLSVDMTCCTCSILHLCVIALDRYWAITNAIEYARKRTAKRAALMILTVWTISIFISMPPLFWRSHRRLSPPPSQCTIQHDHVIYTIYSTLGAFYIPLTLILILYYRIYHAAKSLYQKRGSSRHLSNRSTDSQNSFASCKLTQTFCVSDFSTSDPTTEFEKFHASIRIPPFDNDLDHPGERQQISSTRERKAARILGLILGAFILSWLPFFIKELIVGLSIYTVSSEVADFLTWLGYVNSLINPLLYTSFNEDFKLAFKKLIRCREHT

The entries are a selection whose mix differs from that of the whole data set. Activity calls are given as the source filed them.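 Rule for the calls: active = inhibition above a set limit, the mean inhibition across every tested compound plus 3 SD (cut at about 29% in these data); inactive = the rest.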

The inhibition is the drop in the measured response relative to a control, in per cent.

This assay deals with 5-hydroxytryptamine receptor 1E (Homo sapiens) (UniProt P28566). In words: blockade of human serotonin 5HT1E receptor – cell-based, HTS, primary screen (AID 571).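 Note: signal is the 460 over 535 nm emission ratio of beta-lactamase substrate; 0% = agonist plus DMSO wells and 100% = wells without agonist.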 As to conditions: CHO 5-HT1E Ga15 NFAT-bla reporter, FRET, antagonist; at 6 µM; hits give high values.
Turning to `O=C(COc1ccccc1)OC1CN2CCC1CC2` (stereo not given), the inhibition was inactive: 3.86%.

As for `COP1(=S)c2c(C)nn(CCC#N)c2N=C(c2ccc(F)cc2)N1C` (stereo not given), the inhibition was inactive: 8.68%.

On to `O=C(OC1CN2CCC1CC2)C12CC3CC(CC(C3)C1)C2` (stereo not given), for which the inhibition was inactive: -0.66%.

In the case of `CCOP1(=S)c2c(C)nn(CCC#N)c2N=C(c2ccc(F)cc2)N1C` (stereo not given), the inhibition was inactive: 8.41%.

Consider `CCOP1(=S)c2c(C)nn(CCC#N)c2N=C(c2ccccc2F)N1C` (stereo not given), for which the inhibition is inactive: -17.2%.

On to `O=P(Nc1nccs1)(c1ccccc1)c1nc2ccccc2s1` (stereo not given), for which the inhibition is active: 30.7%.

Turning to `Cc1cccc(OCC(=O)OC2CN3CCC2CC3)c1` (stereo not given), the inhibition is inactive: -8.51%.

Consider `Clc1n[nH]nc1-c1nn[nH][15n]1`, for which the inhibition is inactive: -3.65%.

As for `O=P1(Nc2ccccn2)COc2ccccc2OC1`, the inhibition is inactive: -2.98%.

For the molecule `Cc1ccc(OCC(=O)OC2CN3CCC2CC3)cc1` (stereo not given), the inhibition was inactive: -17.4%.

For the molecule `O=P1(Nc2ccc(Br)cn2)COc2ccccc2OC1`, the inhibition is inactive: 0.02%.

With `O=P1(Nc2ncccn2)COc2ccccc2OC1`, the inhibition was inactive: 5.15%.

Take `Cc1nn(-c2ccccc2)c2c1P(=O)(N1CCOCC1)N(C)C(c1ccccc1)=N2` (stereo not given): the inhibition is inactive: -5.53%.

On to `O=C(OC1CN2CCC1CC2)c1cccc(Cl)c1` (stereo not given), for which the inhibition is inactive: 0.93%.

Regarding `c1nnnn1CCn1cnnn1`, the inhibition was inactive: -6.17%.

On to `O=P(Nc1nccs1)(c1ccccc1)c1ccccc1`, for which the inhibition is inactive: -0.18%.

On to `O=P1(Nc2nc3ccc(Cl)cc3s2)COc2ccccc2O1` (stereo not given), for which the inhibition is inactive: 18.1%.

`COC(=O)c1cc2c(s1)N=C(c1ccccc1)N(C)P2(=O)N1CCOCC1` (stereo not given): the inhibition is inactive: -7.04%.

Turning to `Cc1c2non([O-])c-2c(C)[n+](=O)[n+]1[O-]`, the inhibition was inactive: 1.7%.

In the case of `CCc1nc2c(n1)c1c(non1O)c1c2no[n+]1[O-]`, the inhibition is active: 52.5%.
